Assay results reported in ChEMBL document CHEMBL3352063, “Transition state mimetics of the Plasmodium export element are potent inhibitors of Plasmepsin V from P. falciparum and P. vivax” (J Med Chem, 2014).

Test: Selectivity ratio of IC50 for human Cathepsin D to IC50 for Plasmodium falciparum plasmepsin V

Ratio IC50: 1300
SMILES: CC(C)C[C@H](NC(=O)[C@@H](NC(=O)[C@H](CCCNC(=N)N)NS(=O)(=O)Cc1ccccc1)C(C)C)[C@@H](O)CC(=O)NCCc1ccccc1
